15 compounds from US20090099157A1, “TETRAHYDRO-PYRAZOLO-PYRIDINE THIOETHER MODULATORS OF CATHEPSIN S” (priority 2007, published 2009) can be followed below.

The chains behind the UniProt entries cited, without tags or fusion partners. Residues count along the entry.
UniProt P25774, 115-331: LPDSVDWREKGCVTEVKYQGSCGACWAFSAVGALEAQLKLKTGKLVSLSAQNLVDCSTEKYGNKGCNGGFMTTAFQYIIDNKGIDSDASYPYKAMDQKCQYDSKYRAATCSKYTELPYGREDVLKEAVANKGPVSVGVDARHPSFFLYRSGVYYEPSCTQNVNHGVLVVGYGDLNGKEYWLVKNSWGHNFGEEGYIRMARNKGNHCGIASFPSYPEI

The target in this test is Recombinant human cathepsin S (CatS) (Homo sapiens, UniProt P25774). Put plainly: biochemical.

As a reminder, the IC50 is the concentration needed to halve the response being measured. Regarding `CS(=O)(=O)N1CCc2c(c(-c3ccc(C(F)(F)F)c(SCCN4CCCCC4)c3)nn2CC(O)CN2CCCC2C(=O)O)C1` (stereo not drawn) [Example 455, 1-{2-Hydroxy-3-[5-(methylsulfonyl)-3-{3-[(2-piperidin-1-ylethyl)sulfanyl]-4-(trifluoromethyl)phenyl}-4,5,6,7-tetrahydro-1H-pyrazolo[4,3-c]pyridin-1-yl]propyl}praline], the IC50 is 1030 nM.

For `CS(=O)(=O)NCCSc1cc(-c2nn(CC(O)CN3CCC(C(=O)N4CCCC4)CC3)c3c2CN(S(C)(=O)=O)CC3)ccc1C(F)(F)F` (stereo not drawn) [Example 771, N-[2-({5-[1-{2-Hydroxy-3-[4-(pyrrolidin-1-ylcarbonyl)piperidin-1-yl]propyl}-5-(methylsulfonyl)-4,5,6,7-tetrahydro-1H-pyrazolo[4,3-c]pyridin-3-yl]-2-(trifluoromethyl)phenyl}sulfanyl)ethyl]methanesulfonamide], the IC50 was determined as 110 nM.

Turning to `CC1(O)CCN(CCSc2cc(-c3nn(C[C@@H](O)CN4CCOCC4)c4c3CN(S(C)(=O)=O)CC4)ccc2C(F)(F)F)CC1` [Example 225, 1-(2-{[5-{1-[(2S)-2-Hydroxy-3-morpholin-4-ylpropyl]-5-(methylsulfonyl)-4,5,6,7-tetrahydro-1H-pyrazolo[4,3-c]pyridin-3-yl}-2-(trifluoromethyl)phenyl]sulfanyl}ethyl)-4-methylpiperidin-4-ol], the IC50 came to 1520 nM. Consider `CS(=O)(=O)N1CCc2c(c(-c3ccc(C(F)(F)F)c(SCCN4CCOCC4)c3)nn2CC(O)CN2CCC(C(=O)N3CCCCC3)CC2)C1` (stereo not drawn) [Example 806, 1-[5-(Methylsulfonyl)-3-{3-[(2-morpholin-4-ylethyl)sulfanyl]-4-(trifluoromethyl)phenyl}-4,5,6,7-tetrahydro-1H-pyrazolo[4,3-c]pyridin-1-yl]-3-[4-(piperidin-1-ylcarbonyl)piperidin-1-yl]propan-2-ol], for which the IC50 stood at 160 nM. `CS(=O)(=O)N1CCc2c(c(-c3ccc(C(F)(F)F)c(SCC(=O)N4CC=CCC4)c3)nn2CCCN2CCC(N3CCCC3=O)CC2)C1` [Example 97, 1-{1-[3-(3-{3-[2-(3,6-Dihydro-2H-pyridin-1-yl)-2-oxo-ethylsulfanyl]-4-trifluoromethyl-phenyl}-5-methanesulfonyl-4,5,6,7-tetrahydro-pyrazolo[4,3-c]pyridin-1-yl)-propyl]-piperidin-4-yl}-pyrrolidin-2-one]: the IC50 came out at 130 nM. Consider `CCN(CC)C(=O)C1CCN(C(=O)CSc2cc(-c3nn(CCCN4CCC(N5CCCC5=O)CC4)c4c3CN(S(C)(=O)=O)CC4)ccc2C(F)(F)F)CC1` [Example 107, 1-{2-[5-(5-Methanesulfonyl-1-{3-[4-(2-oxo-pyrrolidin-1-yl)-piperidin-1-yl]-propyl}-4,5,6,7-tetrahydro-1H-pyrazolo[4,3-c]pyridin-3-yl)-2-trifluoromethylphenylsulfanyl]-acetyl}-piperidine-4-carboxylic acid diethylamide], for which the IC50 was 280 nM. For `CCN1CCCC1CNCCSc1cc(-c2nn(CCCN3CCC(N4CCCC4=O)CC3)c3c2CN(S(C)(=O)=O)CC3)ccc1C(F)(F)F` (stereo not drawn) [Example 50, 1-(1-{3-[3-(3-{2-[(1-Ethyl-pyrrolidin-2-ylmethyl)-amino]-ethylsulfanyl}-4-trifluoromethyl-phenyl)-5-methanesulfonyl-4,5,6,7-tetrahydro-pyrazolo[4,3-c]pyridin-1-yl]-propyl}-piperidin-4-yl)-pyrrolidin-2-one], the IC50 was 1300 nM. Turning to `COc1ccc(N2CCN(CC(O)Cn3nc(-c4ccc(C(F)(F)F)c(SCCN5CCCCC5)c4)c4c3CCNC4)CC2)cc1` (stereo not drawn) [Example 452, 1-{4-[4-(Methyloxy)phenyl]piperazin-1-yl}-3-(3-{3-[(2-piperidin-1-ylethyl)sulfanyl]-4-(trifluoromethyl)phenyl}-4,5,6,7-tetrahydro-1H-pyrazolo[4,3-c]pyridin-1-yl)propan-2-ol], the IC50 was determined as 1660 nM. Take `COc1cccc(N2CCN(CC(O)Cn3nc(-c4ccc(C(F)(F)F)c(SCCN5CCCCC5)c4)c4c3CCNC4)CC2)c1` (stereo not drawn) [Example 451, 1-{4-[3-(Methyloxy)phenyl]piperazin-1-yl}-3-(3-{3-[(2-piperidin-1-ylethyl)sulfanyl]-4-(trifluoromethyl)phenyl}-4,5,6,7-tetrahydro-1H-pyrazolo[4,3-c]pyridin-1-yl)propan-2-ol]: the IC50 turned out to be 1000 nM. In the case of `N#Cc1ccc(C2CCN(CC(O)Cn3nc(-c4ccc(C(F)(F)F)c(SCC(=O)N5CCCC5)c4)c4c3CCNC4)CC2)cc1` (stereo not drawn) [Example 425, 4-{1-[2-Hydroxy-3-(3-{3-[(2-oxo-2-pyrrolidin-1-ylethyl)sulfanyl]-4-(trifluoromethyl)phenyl}-4,5,6,7-tetrahydro-1H-pyrazolo[4,3-c]pyridin-1-yl)propyl]piperidin-4-yl}benzonitrile], the IC50 is 100 nM. Regarding `O=C(CO)N1CCc2c(c(-c3ccc(C(F)(F)F)c(SCCN4CCOCC4)c3)nn2CC(O)CN2CCCCC2)C1` (stereo not drawn) [Example 238, 1-[5-(Hydroxyacetyl)-3-{3-[(2-morpholin-4-ylethyl)sulfanyl]-4-(trifluoromethyl)phenyl}-4,5,6,7-tetrahydro-1H-pyrazolo[4,3-c]pyridin-1-yl]-3-piperidin-1-ylpropan-2-ol], the IC50 was determined as 1080 nM. The value for `CS(=O)(=O)N1CCc2c(c(-c3ccc(C(F)(F)F)c(SCC(=O)Nc4ccc(OCc5ccccc5)cc4)c3)nn2CC(O)CN2CCC(N3CCCC3=O)CC2)C1` (stereo not drawn) [Example 72, N-(4-Benzyloxy-phenyl)-2-[5-(1-{2-hydroxy-3-[4-(2-oxo-pyrrolidin-1-yl)-piperidin-1-yl]-propyl}-5-methanesulfonyl-4,5,6,7-tetrahydro-1H-pyrazolo[4,3-c]pyridin-3-yl)-2-trifluoromethyl-phenylsulfanyl]-acetamide] was 1050 nM. `CCN1CCc2c(c(-c3ccc(C(F)(F)F)c(SCC(=O)N4CCCC4)c3)nn2CC(O)CN2CCC(c3ccccn3)CC2)C1` (stereo not drawn) [Example 282, 1-(5-Ethyl-3-{3-[(2-oxo-2-pyrrolidin-1-ylethyl)sulfanyl]-4-(trifluoromethyl)phenyl}-4,5,6,7-tetrahydro-1H-pyrazolo[4,3-c]pyridin-1-yl)-3-(4-pyridin-2-ylpiperidin-1-yl)propan-2-ol]: the IC50 came to 260 nM. As to `CS(=O)(=O)N1CCc2c(c(-c3ccc(C(F)(F)F)c(SCCN4CCOC[C@@H]4CO)c3)nn2CCCN2CCCCC2)C1` [Example 148, {(3S)-4-[2-({5-[5-(Methylsulfonyl)-1-(3-piperidin-1-ylpropyl)-4,5,6,7-tetrahydro-1H-pyrazolo[4,3-c]pyridin-3-yl]-2-(trifluoromethyl)phenyl}sulfanyl)ethyl]morpholin-3-yl}methanol], the IC50 turned out to be 1420 nM. As for `CS(=O)(=O)N1CCc2c(c(-c3ccc(C(F)(F)F)c(SCCN4CCCC4)c3)nn2CC(O)CN2CCC(C(=O)N3CCOCC3)CC2)C1` (stereo not drawn) [Example 753, 1-[5-(Methylsulfonyl)-3-{3-[(2-pyrrolidin-1-ylethyl)sulfanyl]-4-(trifluoromethyl)phenyl}-4,5,6,7-tetrahydro-1H-pyrazolo[4,3-c]pyridin-1-yl]-3-[4-(morpholin-4-ylcarbonyl)piperidin-1-yl]propan-2-ol], the half-maximal inhibitory concentration (IC50) was determined as 390 nM.
